Here are results for one molecule from US7629169B2, “Methods for the production of platelet-derived growth factor-responsive neural precursor cells” (Stem Cell Therapeutics Corp., priority 2004, dated 2009).

The subject of this experiment is PDGF-generated neurospheres. Description: Differentiation of primary PDGF-AA-generated neurospheres, immunocytochemistry. The experiment is classed as cell-based, mouse.
The mark [1] stands for this setting: 50 ng/ml BMP-2, 2 DIV, vs 1% FBS.

B1: BMP-2: bone morphogenetic protein-2 (protein, UniProt P12643 283-396, looked up)
Bone morphogenetic protein 2: QAKHKQRKRLKSSCKRHPLYVDFSDVGWNDWIVAPPGYHAFYCHGECPFPLADHLNSTNHAIVQTLVNSVNSKIPKACCVPTELSAISMLYLDENEKVVLKNYQDMVVEGCGCR
Turning to B1, under setting [1], the neurite length entry is reported as “increased neurite length” and the “number of oligodendrocytes produced per clone” value is reported as “no significant effect”. Also, the MBP-only clones result (2 DIV) is “completely inhibited the generation of MBP-only clones”. Also, the “GFAP-immunoreactive cells (astrocytes)” value (2 DIV differentiation) is given as “absent”. For the setting “2 DIV, vs 1% FBS”, the “percentage of clones expressing NFM” value is recorded as “increased the percentage of clones expressing NFM”. The “OLIG2 / O4 expression” value (6 DIV PDGF-generated neurospheres differentiated 2 DIV) is “significantly reduced expression of OLIG2”. The T3-induced oligodendrocyte differentiation entry (BMP-2 in the presence of T3, 2 DIV) is “suppressed T3-induced oligodendrocyte differentiation”.
